Assay [1] concerns the target 5-hydroxytryptamine receptor 1A (Homo sapiens, UniProt P08908). Description: (§1) The composition of the assay buffers was as follows: for 5-HT1AR: 50 mM Tris HCl, 0.1 mM EDTA, 4 mM MgCl2, 10 µM pargyline, and 0.1% ascorbate; for 5-HT6R: 50 mM Tris HCl, 0.5 mM EDTA, and 4 mM MgCl2; and for 5-HT7bR: 50 mM Tris HCl, 4 mM MgCl2, 10 µM pargyline, and 0.1% ascorbate. All assays were incubated in a total volume of 200 µL in 96-well microtiter plates for 1 h at 37 °C, except for 5-HT1AR which were incubated at room temperature for 1 h. The process of equilibration is terminated by rapid filtration through Unifilter plates with a 96-well cell harvester, and radioactivity retained on the filters was quantified on a Microbeta plate reader. Particulars: 25 °C.

Sequences of proteins named here, by UniProt entry; tags and fusion partners are left off.
UniProt P08908, whole entry: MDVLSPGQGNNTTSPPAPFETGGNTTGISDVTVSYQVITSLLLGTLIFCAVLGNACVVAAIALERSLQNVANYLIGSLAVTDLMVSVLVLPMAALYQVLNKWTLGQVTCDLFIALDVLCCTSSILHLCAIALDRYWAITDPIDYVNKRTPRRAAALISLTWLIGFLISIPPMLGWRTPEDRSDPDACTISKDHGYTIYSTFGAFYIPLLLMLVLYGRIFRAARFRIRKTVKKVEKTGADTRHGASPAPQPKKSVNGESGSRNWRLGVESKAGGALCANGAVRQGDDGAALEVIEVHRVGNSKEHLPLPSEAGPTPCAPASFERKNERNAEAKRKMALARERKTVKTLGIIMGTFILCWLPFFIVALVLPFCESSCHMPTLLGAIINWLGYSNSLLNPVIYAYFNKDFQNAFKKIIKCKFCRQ
UniProt P34969, whole entry: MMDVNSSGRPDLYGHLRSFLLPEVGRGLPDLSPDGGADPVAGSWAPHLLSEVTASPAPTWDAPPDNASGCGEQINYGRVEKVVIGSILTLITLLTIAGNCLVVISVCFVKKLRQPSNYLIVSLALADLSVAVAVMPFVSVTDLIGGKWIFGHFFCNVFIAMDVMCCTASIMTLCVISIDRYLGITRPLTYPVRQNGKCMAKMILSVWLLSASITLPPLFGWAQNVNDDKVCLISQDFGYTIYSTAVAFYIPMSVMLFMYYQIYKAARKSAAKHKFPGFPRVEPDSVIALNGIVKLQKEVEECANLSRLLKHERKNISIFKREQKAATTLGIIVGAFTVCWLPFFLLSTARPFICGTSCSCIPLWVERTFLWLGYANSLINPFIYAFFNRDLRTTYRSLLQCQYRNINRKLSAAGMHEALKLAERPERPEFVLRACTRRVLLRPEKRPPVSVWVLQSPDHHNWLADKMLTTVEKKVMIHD

Assay [2] addresses 5-hydroxytryptamine receptor 7 (Homo sapiens, UniProt P34969). The assay is described as §1. As to conditions: 25 °C.

Structures are written as SMILES. Where a name gives a salt, the structure may show the parent alone. Where only a bound is given, the exact number is not on record here.

For the compound `COc1ccccc1N1CCN(CCCOc2cc(C)ccc2C)CC1` [1-[(2,5-dimethylphenoxy)propyl]-4-(2-methoxyphenyl)piperazine hydrochloride (2)], the figures for the inhibition constant Ki in assay [1] and in assay [2] were less than 1 nM and 23 nM, respectively.

Values taken from BindingDB's records for doi:10.1111/cbdd.12394 (Jagiellonian University Medical College, 2015).
